{
  "sequences": {"note": "By UniProt entry, the sequences of proteins in these tests, tags left out. Where a name states a change or a piece, a line headed by the entry shows the natural chain unless it says otherwise.", "UniProt O00329, whole entry": "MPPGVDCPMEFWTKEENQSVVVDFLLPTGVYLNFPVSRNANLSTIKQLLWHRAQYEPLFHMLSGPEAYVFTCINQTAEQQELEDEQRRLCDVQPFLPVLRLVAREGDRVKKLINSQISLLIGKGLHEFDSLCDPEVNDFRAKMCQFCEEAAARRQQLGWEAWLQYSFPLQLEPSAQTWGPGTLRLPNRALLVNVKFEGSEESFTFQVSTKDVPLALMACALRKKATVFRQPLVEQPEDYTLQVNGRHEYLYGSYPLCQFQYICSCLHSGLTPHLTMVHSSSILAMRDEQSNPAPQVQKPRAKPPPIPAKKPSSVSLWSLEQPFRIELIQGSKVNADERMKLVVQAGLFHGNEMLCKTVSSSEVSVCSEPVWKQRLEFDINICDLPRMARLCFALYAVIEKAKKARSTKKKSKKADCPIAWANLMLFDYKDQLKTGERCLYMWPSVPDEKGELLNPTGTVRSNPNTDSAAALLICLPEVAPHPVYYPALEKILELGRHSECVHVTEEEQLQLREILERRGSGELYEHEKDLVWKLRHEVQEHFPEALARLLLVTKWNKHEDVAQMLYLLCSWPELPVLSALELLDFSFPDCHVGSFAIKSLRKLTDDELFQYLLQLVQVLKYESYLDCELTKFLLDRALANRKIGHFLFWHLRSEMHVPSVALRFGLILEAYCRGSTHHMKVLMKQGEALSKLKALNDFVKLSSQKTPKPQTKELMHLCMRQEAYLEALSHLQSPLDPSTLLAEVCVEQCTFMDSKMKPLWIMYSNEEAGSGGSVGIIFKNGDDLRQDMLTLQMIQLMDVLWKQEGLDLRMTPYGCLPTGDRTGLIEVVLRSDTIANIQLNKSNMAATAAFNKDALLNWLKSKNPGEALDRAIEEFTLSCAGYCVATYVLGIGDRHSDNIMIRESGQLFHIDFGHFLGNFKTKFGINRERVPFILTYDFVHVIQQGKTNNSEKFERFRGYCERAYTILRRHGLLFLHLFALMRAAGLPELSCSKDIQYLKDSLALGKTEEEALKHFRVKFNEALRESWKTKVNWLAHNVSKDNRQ", "UniProt Q06187, whole entry": "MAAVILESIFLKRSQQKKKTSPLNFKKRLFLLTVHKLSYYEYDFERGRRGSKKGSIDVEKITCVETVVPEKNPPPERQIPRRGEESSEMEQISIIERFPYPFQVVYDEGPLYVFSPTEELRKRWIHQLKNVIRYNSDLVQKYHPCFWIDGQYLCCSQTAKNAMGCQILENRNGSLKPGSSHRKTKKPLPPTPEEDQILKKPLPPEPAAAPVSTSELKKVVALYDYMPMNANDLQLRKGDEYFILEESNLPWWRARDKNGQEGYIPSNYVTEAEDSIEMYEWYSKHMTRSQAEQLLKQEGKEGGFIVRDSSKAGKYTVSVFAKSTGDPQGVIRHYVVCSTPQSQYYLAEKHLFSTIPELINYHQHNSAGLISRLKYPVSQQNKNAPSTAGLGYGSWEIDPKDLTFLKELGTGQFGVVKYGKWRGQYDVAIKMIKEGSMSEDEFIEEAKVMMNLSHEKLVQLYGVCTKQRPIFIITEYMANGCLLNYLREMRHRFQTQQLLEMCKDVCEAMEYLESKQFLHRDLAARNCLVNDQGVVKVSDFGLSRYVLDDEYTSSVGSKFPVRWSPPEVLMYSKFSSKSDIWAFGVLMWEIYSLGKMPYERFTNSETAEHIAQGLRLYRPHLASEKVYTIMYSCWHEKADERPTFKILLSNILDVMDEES", "UniProt P27986, whole entry partner": "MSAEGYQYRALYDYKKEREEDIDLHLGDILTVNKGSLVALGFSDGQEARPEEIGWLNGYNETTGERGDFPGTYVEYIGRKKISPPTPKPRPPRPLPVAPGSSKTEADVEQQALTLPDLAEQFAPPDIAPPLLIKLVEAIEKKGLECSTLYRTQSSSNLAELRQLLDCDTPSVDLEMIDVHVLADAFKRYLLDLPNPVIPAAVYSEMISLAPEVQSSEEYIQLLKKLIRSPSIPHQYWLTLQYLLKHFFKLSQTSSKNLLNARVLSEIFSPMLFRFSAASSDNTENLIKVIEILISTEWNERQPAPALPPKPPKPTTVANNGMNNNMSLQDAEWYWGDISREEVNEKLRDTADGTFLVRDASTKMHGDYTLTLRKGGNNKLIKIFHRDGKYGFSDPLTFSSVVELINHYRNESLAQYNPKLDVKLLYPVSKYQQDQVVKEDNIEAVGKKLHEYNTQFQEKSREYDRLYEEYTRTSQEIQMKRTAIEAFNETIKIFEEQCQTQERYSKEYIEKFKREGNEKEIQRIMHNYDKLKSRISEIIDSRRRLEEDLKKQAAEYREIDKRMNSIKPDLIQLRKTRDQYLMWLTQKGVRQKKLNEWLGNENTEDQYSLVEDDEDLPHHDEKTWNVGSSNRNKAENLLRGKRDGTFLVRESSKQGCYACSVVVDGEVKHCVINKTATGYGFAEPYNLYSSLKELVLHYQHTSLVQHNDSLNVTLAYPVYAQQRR"},
  "source": "patent US20210317140A1",
  "about": "“Heterocyclic Compounds and Methods of Use” (MEDIVATION TECHNOLOGIES, INC, priority 2013, published 2021)",
  "key": {"PI3Kδ": {"target": "PI3Kδ (Homo sapiens, UniProt O00329)", "assay": "PI3Kδ kinase assay (HTRF, PIP3 detection)", "format": "biochemical", "details": "10 μM ATP, tested form: HCl"}, "BTK": {"target": "BTK (Homo sapiens, UniProt Q06187)", "assay": "BTK kinase assay (HotSpot, 33P ATP)", "format": "biochemical", "details": "10 μM ATP, tested form: HCl"}},
  "data": [
    {"smiles": "Cc1ccc(-c2nn(C3Cc4ccccc4C3)c3ncnc(N)c23)cc1O", "values": [
      {"measurement": "PI3Kδ @ 0.1 μM (% Inh)", "setting": "PI3Kδ; 0.1 μM compound", "result": 14.07, "unit": "% Inh"},
      {"measurement": "PI3Kδ @ 1 μM (% Inh)", "setting": "PI3Kδ; 1 μM compound", "result": 86.35, "unit": "% Inh"},
      {"measurement": "BTK @ 0.1 μM (% Inh)", "setting": "BTK; 0.1 μM compound", "result": 74.18, "unit": "% Inh"},
      {"measurement": "BTK @ 1 μM (% Inh)", "setting": "BTK; 1 μM compound", "result": 94.77, "unit": "% Inh"}
    ]}
  ]
}
